Literature values as cited in patent US10946071B2, “Combination of ibudilast and interferon-beta and methods of using same” (MediciNova, Inc., priority 2018, dated 2021).

Test system: secondary progressive multiple sclerosis patients
Conditions: cited from earlier work

Molecule	prevention of development of permanent physical disability (recombinant interferon-beta, SPMS patients, Filippini et al., Cochrane 2012)	efficacy in clinical trials (EU SPMS, NA SPMS, SPECTRIMS, IMPACT) (secondary progressive multiple sclerosis patients, review by Jakimovski et al.)	natural history of lesion development (chronic black holes) (patients with SPMS, Traboulsee et al. 2017)
interferon-beta: polypeptide, normally produced by fibroblasts, that has antiviral and antiproliferative effects; e.g. Avonex, Betaseron, Extavia, Rebif, Plegridy (protein, UniProt P01574 22-187, looked up) Interferon beta: MSYNLLGFLQRSSNFQCQKLLWQLNGRLEYCLKDRMNFDIPEEIKQLQQFQKEDAALTIYEMLQNIFAIFRQDSSSTGWNETIVENLLANVYHQINHLKTVLEEKLEKEDFTRGKLMSSLHLKRYYGRILHYLKAKEYSHCAWTIVRVEILRNFYFINRLTGYLRN	did not prevent the development of permanent physical disability	failed to be efficacious	–
interferon-beta-1a: therapeutic form of interferon-beta produced in mammalian cells (Avonex, Rebif) (protein, UniProt P01574 22-187, looked up, interferon beta-1a) Interferon beta: MSYNLLGFLQRSSNFQCQKLLWQLNGRLEYCLKDRMNFDIPEEIKQLQQFQKEDAALTIYEMLQNIFAIFRQDSSSTGWNETIVENLLANVYHQINHLKTVLEEKLEKEDFTRGKLMSSLHLKRYYGRILHYLKAKEYSHCAWTIVRVEILRNFYFINRLTGYLRN	–	–	appears to be unaffected
